In brackets after ≈: the same amount, converted by molar mass. Like-named read-outs stand apart in the source and are kept apart here.
Legend:
Assay type in all cases: cell-based
E. coli ATCC 25922 = tested on: E. coli ATCC 25922
Protocol: (§1) The inoculum was prepared by making a direct suspension of isolated colonies (selected from an 18-24 hour Mueller-Hinton agar plate) adjusted to the 0.5 McFarland standard. […] The assays were performed in duplicate. […] Several of the compounds were subjected to multiple tests, and where this is the case, the MIC presented is the median value obtained. The MIC values are quoted in μg/mL.

K. pneumoniae ATCC 13822 = tested on: K. pneumoniae ATCC 13822
Protocol: as §1

[1] = tested on: A. baumannii ATCC BAA-747
Protocol: as §1

A. baumannii NCTC 13424 = tested on: A. baumannii NCTC 13424
Protocol: as §1

P. aeruginosa ATCC 27853 = tested on: P. aeruginosa ATCC 27853
Protocol: as §1

[2] = cation-adjusted Mueller-Hinton Broth, 18-20 h, 35° C.

Row | Compound | MIC E. coli ATCC 25922 (E. coli ATCC 25922; ATCC 25922) [µg/mL] | MIC A. baumannii ATCC BAA-747 [1, 2] [µg/mL] | MIC A. baumannii NCTC 13424 (A. baumannii NCTC 13424; [2]) [µg/mL] | also measured
1 | CC(C)C[C@@H]1NC(=O)[C@@H](Cc2ccccc2)NC(=O)[C@H](CCN)NC(=O)[C@@H](NC(=O)[C@H](CN)NC(=O)[C@@H](NC(=O)C[C@H](CN)c2ccc(Cl)cc2)[C@@H](C)O)CCNC(=O)[C@H]([C@@H](C)O)NC(=O)[C@H](CCN)NC(=O)[C@H](CCN)NC1=O [Example 1, (S)-4-amino-3-(4- chlorophenyl) butanoyl- Thr- Dap-Cyclo[Dab- Dab-DPhe-Leu-Dab- Dab-Thr]] | 0.125 (≈ 0.109 µM) | – | – | MIC K. pneumoniae ATCC 13822 (K. pneumoniae ATCC 13822; ATCC 13822): 0.125 µg/mL (≈ 0.109 µM)
2 | CC(C)C[C@@H]1NC(=O)[C@@H](CC(C)C)NC(=O)[C@H](CCN)NC(=O)[C@@H](NC(=O)[C@H](CN)NC(=O)[C@@H](NC(=O)C[C@H](CN)Cc2ccccc2)[C@@H](C)O)CCNC(=O)[C@H]([C@@H](C)O)NC(=O)[C@H](CCN)NC(=O)[C@H](CCN)NC1=O [Example 7, (R)-4-amino-3- benzylbutanoyl -Thr- Dap-Cyclo[Dab-Dab- DLeu-Leu-Dab-Dab- Thr]. Isomer 1] | – | 0.125 (≈ 0.115 µM) | 0.125 (≈ 0.115 µM) | MIC P. aeruginosa ATCC 27853 (P. aeruginosa ATCC 27853; [2]): 0.125 µg/mL (≈ 0.115 µM)
3 | CC(C)C[C@@H]1NC(=O)[C@@H](CC(C)C)NC(=O)[C@H](CCN)NC(=O)[C@@H](NC(=O)[C@H](CN)NC(=O)[C@@H](NC(=O)C[C@@H](CN)Cc2ccccc2)[C@@H](C)O)CCNC(=O)[C@H]([C@@H](C)O)NC(=O)[C@H](CCN)NC(=O)[C@H](CCN)NC1=O [Example 8, (S)-4-amino-3- benzylbutanoyl-Thr- Dap-Cyclo[Dab-Dab- DLeu-Leu-Dab-Dab- Thr], Isomer 2] | – | 0.125 (≈ 0.115 µM) | – | MIC E. coli ATCC 25922 (E. coli ATCC 25922; [2]): 0.125 µg/mL (≈ 0.115 µM)
4 | CC(C)C[C@@H]1NC(=O)[C@@H](Cc2ccccc2)NC(=O)[C@H](CCN)NC(=O)[C@@H](NC(=O)[C@H](CN)NC(=O)[C@@H](NC(=O)C[C@H](CN)Cc2ccccc2)[C@@H](C)O)CCNC(=O)[C@H]([C@@H](C)O)NC(=O)[C@H](CCN)NC(=O)[C@H](CCN)NC1=O [Example 9, (R)-4-amino-3- benzylbutanoyl-Thr- Dap-Cyclo[Dab-Dab- DPhe-Leu-Dab-Dab- Thr). Isomer 1] | – | – | 0.125 (≈ 0.111 µM) | MIC P. aeruginosa ATCC 27853 (P. aeruginosa ATCC 27853; [2]): 0.125 µg/mL (≈ 0.111 µM)
5 | CC(C)C[C@@H]1NC(=O)[C@@H](Cc2ccccc2)NC(=O)[C@H](CCN)NC(=O)[C@@H](NC(=O)[C@H](CN)NC(=O)[C@@H](NC(=O)C[C@@H](CN)Cc2ccccc2)[C@@H](C)O)CCNC(=O)[C@H]([C@@H](C)O)NC(=O)[C@H](CCN)NC(=O)[C@H](CCN)NC1=O [Example 10, (S)-4-amino-3- benzylbutanoyl-Thr- Dap-Cyclo[Dab-Dab- DPhe-Leu-Dab-Dab- Thr]. Isomer 2] | – | – | – | MIC E. coli ATCC 25922 (E. coli ATCC 25922; [2]): 0.125 µg/mL (≈ 0.111 µM); MIC P. aeruginosa ATCC 27853 (P. aeruginosa ATCC 27853; [2]): 0.125 µg/mL (≈ 0.111 µM)
6 | CC(C)C[C@@H]1NC(=O)[C@@H](Cc2ccccc2)NC(=O)[C@H](CCN)NC(=O)[C@@H](NC(=O)[C@H](CN)NC(=O)[C@@H](NC(=O)C[C@@H](CN)Cc2cccc(Cl)c2)[C@@H](C)O)CCNC(=O)[C@H]([C@@H](C)O)NC(=O)[C@H](CCN)NC(=O)[C@H](CCN)NC1=O [Example 12, (S)-4-amino-3-(3- chlorobenzyl)butanoyl- Thr-Dap-Cyclo[Dab- Dab-DPhe-Leu-Dab- Dab-Thr]. Isomer 2] | – | – | – | MIC P. aeruginosa ATCC 27853 (P. aeruginosa ATCC 27853; ATCC 27853): 0.125 µg/mL (≈ 0.108 µM)
7 | CC(C)C[C@@H]1NC(=O)[C@@H](CC(C)C)NC(=O)[C@H](CCN)NC(=O)[C@@H](NC(=O)[C@H](CN)NC(=O)[C@@H](NC(=O)C[C@H](CN)c2cccc(C(C)C)c2)[C@@H](C)O)CCNC(=O)[C@H]([C@@H](C)O)NC(=O)[C@H](CCN)NC(=O)[C@H](CCN)NC1=O [Example 15, (S)-4-amino-3-(3- isopropylphenyl) butanoyl-Thr-Dap- Cyclo[Dab-Dab-DLeu- Leu-Dab-Dab-Thr]] | 0.125 (≈ 0.112 µM) | – | – | MIC K. pneumoniae ATCC 13822 (K. pneumoniae ATCC 13822; ATCC 13822): 0.125 µg/mL (≈ 0.112 µM)
8 | CC[C@@H]1NC(=O)[C@@H](Cc2ccccc2)NC(=O)[C@H](CCN)NC(=O)[C@@H](NC(=O)[C@H](CN)NC(=O)[C@@H](NC(=O)C[C@@H](CN)c2cccc(C(C)C)c2)[C@@H](C)O)CCNC(=O)[C@H]([C@@H](C)O)NC(=O)[C@H](CCN)NC(=O)[C@H](CCN)NC1=O [Example 18] | – | 0.125 (≈ 0.111 µM) | 0.125 (≈ 0.111 µM) | –
9 | Cc1cccc([C@@H](CN)CC(=O)N[C@H](C(=O)N[C@@H](CN)C(=O)N[C@H]2CCNC(=O)[C@H]([C@@H](C)O)NC(=O)[C@H](CCN)NC(=O)[C@H](CCN)NC(=O)[C@H](CC(C)C)NC(=O)[C@@H](Cc3ccccc3)NC(=O)[C@H](CCN)NC2=O)[C@@H](C)O)c1 [Example 21, (S)-4-amino-3-(m- tolyl)butanoyl-Thr- Dap-Cyclo[Dab-Dab- DPhe-Leu-Dab-Dab- Thr]] | 0.125 (≈ 0.111 µM) | – | – | MIC A. baumannii ATCC BAA-747 ([1]; ATCC BAA-747): 0.125 µg/mL (≈ 0.111 µM); MIC A. baumannii NCTC 13424 (A. baumannii NCTC 13424; NCTC 13424): 0.125 µg/mL (≈ 0.111 µM)
10 | CC[C@@H]1NC(=O)[C@@H](CC(C)C)NC(=O)[C@H](CCN)NC(=O)[C@@H](NC(=O)[C@H](CN)NC(=O)[C@@H](NC(=O)C[C@H](CN)c2cccc(Cl)c2)[C@@H](C)O)CCNC(=O)[C@H]([C@@H](C)O)NC(=O)[C@H](CCN)NC(=O)[C@H](CCN)NC1=O [Example 23] | – | – | 0.125 (≈ 0.115 µM) | MIC E. coli ATCC 25922 (E. coli ATCC 25922; [2]): 0.125 µg/mL (≈ 0.115 µM); MIC K. pneumoniae ATCC 13822 (K. pneumoniae ATCC 13822; [2]): 0.125 µg/mL (≈ 0.115 µM)
11 | CC[C@@H]1NC(=O)[C@@H](CC(C)C)NC(=O)[C@H](CCN)NC(=O)[C@@H](NC(=O)[C@H](CN)NC(=O)[C@@H](NC(=O)C[C@H](CN)c2cccc(-c3ccccc3)c2)[C@@H](C)O)CCNC(=O)[C@H]([C@@H](C)O)NC(=O)[C@H](CCN)NC(=O)[C@H](CCN)NC1=O [Example 24, (S)-3-(1,1′-biphenyl- 3-yl)-4-aminobutanoyl-Thr- Dap-Cyclo[Dab-Dab- DLeu-Abu-Dab-Dab- Thr]] | 0.125 (≈ 0.111 µM) | – | – | MIC P. aeruginosa ATCC 27853 (P. aeruginosa ATCC 27853; ATCC 27853): 0.125 µg/mL (≈ 0.111 µM)
12 | CC[C@@H]1NC(=O)[C@@H](CC(C)C)NC(=O)[C@H](CCN)NC(=O)[C@@H](NC(=O)[C@H](CN)NC(=O)[C@@H](NC(=O)C[C@@H](CN)c2cccc(-c3ccccc3)c2)[C@@H](C)O)CCNC(=O)[C@H]([C@@H](C)O)NC(=O)[C@H](CCN)NC(=O)[C@H](CCN)NC1=O [Example 25] | – | 0.125 (≈ 0.111 µM) | 0.125 (≈ 0.111 µM) | –
13 | CC[C@@H]1NC(=O)[C@@H](CC(C)C)NC(=O)[C@H](CCN)NC(=O)[C@@H](NC(=O)[C@H](CN)NC(=O)[C@@H](NC(=O)C[C@@H](CN)c2cccc(CC(C)C)c2)[C@@H](C)O)CCNC(=O)[C@H]([C@@H](C)O)NC(=O)[C@H](CCN)NC(=O)[C@H](CCN)NC1=O [Example 27, (R)-4-amino-3-(3- isobutylphenyl)butanoyl- Thr- Dap- Cyclo[Dab-Dab-DLeu- Abu-Dab-Dab-Thr]] | – | – | – | MIC A. baumannii ATCC BAA-747 ([1]; ATCC BAA-747): 0.125 µg/mL (≈ 0.113 µM); MIC A. baumannii NCTC 13424 (A. baumannii NCTC 13424; NCTC 13424): 0.125 µg/mL (≈ 0.113 µM)
14 | CCCC[C@H]1NC(=O)[C@H](CCN)NC(=O)[C@@H](NC(=O)[C@H](CN)NC(=O)[C@@H](NC(=O)C[C@H](CN)c2cc(Cl)cc(Cl)c2)[C@@H](C)O)CCNC(=O)[C@H]([C@@H](C)O)NC(=O)[C@H](CCN)NC(=O)[C@H](CCN)NC(=O)[C@H](CC)NC1=O [Example 28, (S)-4-amino-3-(3,5- dichlorophenyl)butanoyl- Thr-Dap- Cyclo[Dab-Dab- DnorLeu-Abu-Dab- Dab-Thr]] | 0.125 (≈ 0.112 µM) | 0.125 (≈ 0.112 µM) | – | MIC K. pneumoniae ATCC 13822 (K. pneumoniae ATCC 13822; ATCC 13822): 0.125 µg/mL (≈ 0.112 µM)
15 | CCCC[C@H]1NC(=O)[C@H](CCN)NC(=O)[C@@H](NC(=O)[C@H](CN)NC(=O)[C@@H](NC(=O)C[C@@H](CN)c2cc(Cl)cc(Cl)c2)[C@@H](C)O)CCNC(=O)[C@H]([C@@H](C)O)NC(=O)[C@H](CCN)NC(=O)[C@H](CCN)NC(=O)[C@H](CC)NC1=O [Example 29, (R)-4-amino-3-(3,5- dichlorophenyl)butanoyl- Thr-Dap- Cyclo[Dab-Dab- DnorLeu-Abu-Dab- Dab-Thr]] | – | 0.125 (≈ 0.112 µM) | 0.125 (≈ 0.112 µM) | –
16 | CC[C@@H]1NC(=O)[C@@H](CC(C)C)NC(=O)[C@H](CCN)NC(=O)[C@@H](NC(=O)[C@H](CN)NC(=O)[C@@H](NC(=O)C[C@H](CN)c2cccc(-c3ccsc3)c2)[C@@H](C)O)CCNC(=O)[C@H]([C@@H](C)O)NC(=O)[C@H](CCN)NC(=O)[C@H](CCN)NC1=O [Example 30, (S)-4-amino-3-(3- (thiophen-3-yl)phenyl)butanoyl- Thr-Dap-Cyclo[Dab- Dab-DLeu-Abu-Dab- Dab-Thr]] | 0.125 (≈ 0.111 µM) | – | – | MIC K. pneumoniae ATCC 13822 (K. pneumoniae ATCC 13822; ATCC 13822): 0.125 µg/mL (≈ 0.111 µM)
17 | CC[C@@H]1NC(=O)[C@@H](CC(C)C)NC(=O)[C@H](CCN)NC(=O)[C@@H](NC(=O)[C@H](CN)NC(=O)[C@@H](NC(=O)C[C@@H](CN)c2cccc(-c3ccsc3)c2)[C@@H](C)O)CCNC(=O)[C@H]([C@@H](C)O)NC(=O)[C@H](CCN)NC(=O)[C@H](CCN)NC1=O [Example 31, (R)-4-amino-3-(3- (thiophen-3-yl)phenyl)butanoyl- Thr-Dap-Cyclo[Dab- Dab-DLeu-Abu-Dab- Dab-Thr]] | 0.125 (≈ 0.111 µM) | – | – | MIC A. baumannii NCTC 13424 (A. baumannii NCTC 13424; NCTC 13424): 0.125 µg/mL (≈ 0.111 µM)
18 | CC[C@@H]1NC(=O)[C@@H](CC(C)C)NC(=O)[C@H](CCN)NC(=O)[C@@H](NC(=O)[C@H](CN)NC(=O)[C@@H](NC(=O)C[C@H](CN)c2cccc(Br)c2)[C@@H](C)O)CCNC(=O)[C@H]([C@@H](C)O)NC(=O)[C@H](CCN)NC(=O)[C@H](CCN)NC1=O [Example 32, (S)-4-amino-3-(3- bromophenyl)butanoyl- Thr-Dap-Cyclo[Dab- Dab-DLeu-Abu-Dab- Dab-Thr]] | – | 0.125 (≈ 0.111 µM) | 0.125 (≈ 0.111 µM) | –
